This passage reports IC50 and EC50 results from ChEMBL document CHEMBL3098003, “Structure-based design of 2-aminopyridine oxazolidinones as potent and selective tankyrase inhibitors” (ACS Med Chem Lett, 2013).

The target of test [1] is T1, Tankyrase 1/2 (Homo sapiens, UniProt Q9H2K2+O95271).
T1 sequence (Q9H2K2 whole entry): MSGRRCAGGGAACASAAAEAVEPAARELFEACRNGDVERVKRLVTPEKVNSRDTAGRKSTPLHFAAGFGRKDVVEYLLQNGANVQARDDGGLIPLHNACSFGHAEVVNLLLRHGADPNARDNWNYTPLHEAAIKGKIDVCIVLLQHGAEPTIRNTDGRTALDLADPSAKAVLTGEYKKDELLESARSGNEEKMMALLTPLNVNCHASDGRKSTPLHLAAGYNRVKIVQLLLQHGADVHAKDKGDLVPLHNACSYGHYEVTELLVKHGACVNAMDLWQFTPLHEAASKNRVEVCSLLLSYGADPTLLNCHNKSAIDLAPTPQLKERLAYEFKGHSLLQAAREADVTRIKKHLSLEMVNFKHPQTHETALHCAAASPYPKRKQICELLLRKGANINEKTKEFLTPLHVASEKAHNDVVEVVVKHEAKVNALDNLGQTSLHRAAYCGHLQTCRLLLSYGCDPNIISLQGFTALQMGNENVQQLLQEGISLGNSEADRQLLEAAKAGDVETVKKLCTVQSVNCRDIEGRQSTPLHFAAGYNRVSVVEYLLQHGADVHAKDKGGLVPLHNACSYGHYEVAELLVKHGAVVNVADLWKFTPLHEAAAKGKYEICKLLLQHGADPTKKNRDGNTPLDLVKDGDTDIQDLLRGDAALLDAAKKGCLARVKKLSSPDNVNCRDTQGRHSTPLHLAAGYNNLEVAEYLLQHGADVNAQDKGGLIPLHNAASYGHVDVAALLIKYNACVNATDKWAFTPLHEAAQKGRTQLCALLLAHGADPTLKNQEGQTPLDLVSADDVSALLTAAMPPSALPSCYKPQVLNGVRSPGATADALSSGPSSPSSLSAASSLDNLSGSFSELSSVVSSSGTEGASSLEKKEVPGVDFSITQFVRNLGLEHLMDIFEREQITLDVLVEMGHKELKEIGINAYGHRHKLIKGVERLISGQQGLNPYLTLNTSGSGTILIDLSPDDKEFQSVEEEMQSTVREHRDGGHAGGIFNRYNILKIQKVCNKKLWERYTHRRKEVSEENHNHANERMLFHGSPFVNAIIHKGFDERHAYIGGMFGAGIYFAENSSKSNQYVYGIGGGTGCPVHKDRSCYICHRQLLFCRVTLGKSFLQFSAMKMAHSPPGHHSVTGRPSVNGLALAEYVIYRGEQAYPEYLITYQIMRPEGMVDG
T1 sequence (O95271 whole entry): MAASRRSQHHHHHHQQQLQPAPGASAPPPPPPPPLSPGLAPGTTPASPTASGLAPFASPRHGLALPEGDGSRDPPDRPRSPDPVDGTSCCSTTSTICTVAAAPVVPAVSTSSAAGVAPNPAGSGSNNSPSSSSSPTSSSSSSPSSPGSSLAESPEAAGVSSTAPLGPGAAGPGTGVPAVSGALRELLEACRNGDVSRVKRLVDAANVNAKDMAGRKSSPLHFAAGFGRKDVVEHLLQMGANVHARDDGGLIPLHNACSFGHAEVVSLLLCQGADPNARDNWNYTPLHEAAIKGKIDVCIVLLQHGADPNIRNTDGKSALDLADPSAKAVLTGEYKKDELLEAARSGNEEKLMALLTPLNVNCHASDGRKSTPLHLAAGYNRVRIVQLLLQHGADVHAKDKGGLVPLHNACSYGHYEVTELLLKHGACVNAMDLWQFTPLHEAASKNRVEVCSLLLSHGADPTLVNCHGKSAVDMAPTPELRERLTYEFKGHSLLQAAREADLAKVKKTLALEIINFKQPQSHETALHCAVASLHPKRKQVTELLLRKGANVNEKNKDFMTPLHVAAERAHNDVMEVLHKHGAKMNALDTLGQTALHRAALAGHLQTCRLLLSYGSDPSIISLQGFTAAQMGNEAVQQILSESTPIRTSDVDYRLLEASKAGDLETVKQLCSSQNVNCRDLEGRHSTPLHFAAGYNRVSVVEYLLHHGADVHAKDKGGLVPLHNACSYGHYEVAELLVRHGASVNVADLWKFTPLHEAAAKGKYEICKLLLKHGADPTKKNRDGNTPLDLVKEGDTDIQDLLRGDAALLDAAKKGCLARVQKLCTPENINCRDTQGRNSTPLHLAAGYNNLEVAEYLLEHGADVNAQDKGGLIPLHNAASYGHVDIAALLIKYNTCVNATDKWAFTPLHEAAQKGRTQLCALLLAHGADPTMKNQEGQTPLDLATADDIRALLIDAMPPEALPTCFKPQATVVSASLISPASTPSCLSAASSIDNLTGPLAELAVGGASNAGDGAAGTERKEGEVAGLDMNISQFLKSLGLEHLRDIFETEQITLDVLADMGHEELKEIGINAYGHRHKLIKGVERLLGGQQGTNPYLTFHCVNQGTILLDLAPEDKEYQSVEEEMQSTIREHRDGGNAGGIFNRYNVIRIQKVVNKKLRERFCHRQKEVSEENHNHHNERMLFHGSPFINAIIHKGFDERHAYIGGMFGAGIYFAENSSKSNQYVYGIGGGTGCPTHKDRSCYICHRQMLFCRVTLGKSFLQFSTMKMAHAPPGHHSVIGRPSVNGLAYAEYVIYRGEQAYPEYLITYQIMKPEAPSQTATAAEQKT
Briefly: Inhibition of tankyrase in human SW480 cells assessed as degradation of total beta-catenin after 40 to 48 hrs. The class given is cell-based.

Test [2] deals with T1, Tankyrase 1/2. Briefly: Inhibition of tankyrase in human DLD1 cells assessed as inhibition of Wnt gene transcription after 40 to 48 hrs by STF assay. The format is cell-based. Conditions: dld-1.
The target in test [3] is T1, Tankyrase 1/2. Briefly: Inhibition of tankyrase in human SW480 cells assessed as axin2 accumulation after 24 hrs by Hoechst dye-based assay. The format is cell-based.
Test [4] deals with T2, Poly [ADP-ribose] polymerase tankyrase-1 (Homo sapiens, UniProt O95271).
T2 sequence (O95271 whole entry): T1 sequence (O95271 whole entry)
Briefly: Inhibition of recombinant 6XHis-tagged TNKS1 (1091 to 1325) (unknown origin) after 60 mins by spectrophotometric analysis.

Regarding `CC1(C)OC(=O)N([C@H]2CC[C@H](c3cnc(N)c(-c4ncccn4)c3)CC2)[C@H]1c1ccccc1`, the IC50 (usually the concentration needed to halve the response being measured) at Tankyrase 1/2 [1] stood at 91 nM; on Tankyrase 1/2 [2], 12 nM; in test [4], 2 nM. Further, at Tankyrase 1/2 [3], the EC50 (in general, the concentration giving half of the maximal effect) amounted to 52 nM.
Turning to `CC1(C)OC(=O)N([C@H]2CC[C@@H](c3cnc(N)c(-c4ncccn4)c3)CC2)[C@H]1c1ccccc1`, the IC50 on Tankyrase 1/2 [1] was 6550 nM. Besides, the EC50 at Tankyrase 1/2 [3] was determined as 5810 nM.
